Test results from BindingDB's records for 27377327.

Protein sequences, listed by entry. Tags and fused reporters are not part of them. Residues count along the entry.
UniProt P22303, 32-614 limits assumed: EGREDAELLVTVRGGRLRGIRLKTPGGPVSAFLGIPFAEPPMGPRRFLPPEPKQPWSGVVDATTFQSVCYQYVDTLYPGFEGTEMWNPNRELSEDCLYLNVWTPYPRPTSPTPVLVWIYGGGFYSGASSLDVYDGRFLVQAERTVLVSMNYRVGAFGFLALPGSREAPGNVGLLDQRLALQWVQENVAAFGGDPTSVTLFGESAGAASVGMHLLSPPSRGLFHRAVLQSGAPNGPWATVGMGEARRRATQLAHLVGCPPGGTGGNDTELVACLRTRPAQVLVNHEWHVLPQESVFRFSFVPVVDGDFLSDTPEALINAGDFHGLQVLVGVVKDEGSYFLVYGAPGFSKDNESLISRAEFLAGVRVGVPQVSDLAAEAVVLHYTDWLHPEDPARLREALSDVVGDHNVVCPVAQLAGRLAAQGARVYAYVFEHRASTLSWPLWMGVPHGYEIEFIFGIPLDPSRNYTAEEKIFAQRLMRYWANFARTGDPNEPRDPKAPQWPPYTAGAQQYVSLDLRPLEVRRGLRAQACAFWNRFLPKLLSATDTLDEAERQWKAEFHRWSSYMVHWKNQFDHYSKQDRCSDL
UniProt P06276, 29-602 limits assumed: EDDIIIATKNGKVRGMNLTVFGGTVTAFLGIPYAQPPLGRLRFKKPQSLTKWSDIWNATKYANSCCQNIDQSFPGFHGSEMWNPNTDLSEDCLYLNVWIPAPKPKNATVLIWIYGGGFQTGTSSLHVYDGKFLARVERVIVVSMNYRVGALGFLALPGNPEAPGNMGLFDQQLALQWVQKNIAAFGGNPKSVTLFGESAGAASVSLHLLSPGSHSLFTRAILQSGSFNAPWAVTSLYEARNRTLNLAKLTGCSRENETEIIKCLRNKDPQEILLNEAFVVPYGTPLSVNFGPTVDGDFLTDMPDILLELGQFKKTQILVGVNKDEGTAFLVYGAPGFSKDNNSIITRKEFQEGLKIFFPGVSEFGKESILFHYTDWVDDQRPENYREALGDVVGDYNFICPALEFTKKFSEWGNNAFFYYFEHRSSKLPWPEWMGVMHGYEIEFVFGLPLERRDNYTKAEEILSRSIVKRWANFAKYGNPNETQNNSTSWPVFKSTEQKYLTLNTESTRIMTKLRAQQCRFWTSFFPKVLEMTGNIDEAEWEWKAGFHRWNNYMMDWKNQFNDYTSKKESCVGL

Key:
[1] = biological target: Acetylcholinesterase (Homo sapiens, UniProt P22303); experiment: ASSAY_NAME: ChEMBL_1590871 (CHEMBL3830392) DESCRIPTION: Inhibition of human AChE assessed as acetylthiocholine hydrolysis preincubated for 10 mins followed by addition of substrate measured after 2 mins by spectrophotometric method
[2] = biological target: Cholinesterase (Homo sapiens, UniProt P06276); experiment: ASSAY_NAME: ChEMBL_1590872 (CHEMBL3830393) DESCRIPTION: Inhibition of human plasma BChE assessed as butyrylthiocholine hydrolysis preincubated for 10 mins followed by addition of substrate measured after 2 mins by spectrophotometric method

Compound	IC50 [1]	IC50 [2]
Cc1c(OC(=O)N(C)C)c2c(c[n+]1C)COC(C(C)(C)C)OC2 (centres undefined)	110 µM	310 µM
Cc1c(OC(=O)N(C)C)c2c(c[n+]1C)COC(C)(C)OC2	500 µM	1190 µM
Cc1c(OC(=O)N(C)C)c2c(c[n+]1C)COC(C)OC2 (centres undefined)	150 µM	1030 µM
CCC1OCc2c[n+](C)c(C)c(OC(=O)N(C)C)c2CO1 (centres undefined)	280 µM	800 µM
Cc1c(OC(=O)N(C)C)c2c(c[n+]1C)COCOC2	130 µM	400 µM
Cc1c(OC(=O)N(C)C)c2c(c[n+]1C)COC(C(C)C)OC2 (centres undefined)	260 µM	900 µM
CCCC1OCc2c[n+](C)c(C)c(OC(=O)N(C)C)c2CO1 (centres undefined)	140 µM	400 µM
